Values quoted from earlier work, collected in patent US20070254881A1, “Pyrazole Derivative” (DAIICHI PHARMACEUTICAL CO., LTD., priority 2004, published 2007).
pIC50: −log10 of the molar value.

Protein sequences, listed by entry. Tags and fused reporters are not part of them. Residues count along the entry.
UniProt P35354, 18-604: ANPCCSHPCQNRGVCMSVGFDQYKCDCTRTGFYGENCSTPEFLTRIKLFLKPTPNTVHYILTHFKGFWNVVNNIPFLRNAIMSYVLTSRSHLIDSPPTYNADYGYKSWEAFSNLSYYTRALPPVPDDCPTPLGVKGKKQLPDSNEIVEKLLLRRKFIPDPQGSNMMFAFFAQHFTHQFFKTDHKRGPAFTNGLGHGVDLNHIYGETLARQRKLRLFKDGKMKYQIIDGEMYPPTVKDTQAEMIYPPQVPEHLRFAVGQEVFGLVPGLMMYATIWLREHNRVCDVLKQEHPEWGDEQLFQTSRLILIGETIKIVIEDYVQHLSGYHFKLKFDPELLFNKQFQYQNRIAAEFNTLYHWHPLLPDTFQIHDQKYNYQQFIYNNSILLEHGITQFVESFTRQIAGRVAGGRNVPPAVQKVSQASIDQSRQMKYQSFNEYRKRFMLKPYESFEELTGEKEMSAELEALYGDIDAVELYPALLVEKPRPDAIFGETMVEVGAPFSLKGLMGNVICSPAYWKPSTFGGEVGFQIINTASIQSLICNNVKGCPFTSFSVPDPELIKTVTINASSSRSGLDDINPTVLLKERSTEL

Target: COX-2 (Homo sapiens, UniProt P35354)
Conditions: read-out: inhibitory activity against COX-2 (IC50); cited from earlier work

CS(=O)(=O)c1ccc(-c2cc(C#N)nn2-c2ccc(F)cc2)cc1 [compound (A)]
pIC50: 6.62
